Earlier results on 1 substance are cited in patent publication US20250087329A1, “PERSONALISED RECOMMENDED DAILY INTAKE FOR NUTRIENTS BASED ON INDIVIDUAL GENETIC RISK SCORES” (SOCIETE DES PRODUITS NESTLE S.A., priority 2021, published 2025).

For this data set the following is noted: Person; daily intake; cited from earlier work.

Consider Vitamin D, for which the “UL (tolerable upper intake level)” value was 100 µg.
